Source: BindingDB's records for US20240009175
Only a part of the results on these compounds is given; other tests are left out.

Protein sequences, listed by entry. Tags and fused reporters are not part of them.
UniProt Q9NR19, whole entry: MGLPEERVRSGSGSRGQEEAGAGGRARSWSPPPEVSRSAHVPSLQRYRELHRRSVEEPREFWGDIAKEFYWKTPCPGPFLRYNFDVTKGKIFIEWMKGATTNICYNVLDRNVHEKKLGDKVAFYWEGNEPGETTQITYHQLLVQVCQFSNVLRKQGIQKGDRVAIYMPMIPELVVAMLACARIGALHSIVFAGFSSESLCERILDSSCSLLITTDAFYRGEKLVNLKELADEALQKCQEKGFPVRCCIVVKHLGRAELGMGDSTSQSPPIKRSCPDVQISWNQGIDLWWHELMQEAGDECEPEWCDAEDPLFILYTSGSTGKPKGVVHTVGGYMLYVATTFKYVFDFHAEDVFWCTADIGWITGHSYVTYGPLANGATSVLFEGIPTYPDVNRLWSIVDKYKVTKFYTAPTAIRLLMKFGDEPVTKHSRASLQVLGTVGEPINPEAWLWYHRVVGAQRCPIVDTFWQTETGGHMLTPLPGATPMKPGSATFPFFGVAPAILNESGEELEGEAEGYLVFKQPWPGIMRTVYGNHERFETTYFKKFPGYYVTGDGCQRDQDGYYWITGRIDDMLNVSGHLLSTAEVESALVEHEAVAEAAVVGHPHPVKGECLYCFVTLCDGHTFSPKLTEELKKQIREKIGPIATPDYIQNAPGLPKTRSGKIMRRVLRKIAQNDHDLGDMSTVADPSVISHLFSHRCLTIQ

Biological target: Acetyl-coenzyme A synthetase, cytoplasmic (Homo sapiens, UniProt Q9NR19)

Work on COc1nc2nc(C(O)(c3ccccc3)c3ccccc3)n(CCN)c2cc1-c1nnn[nH]1 yielded an IC50 of 55 nM.
